Literature values, collected in patent US20220257540A1, “COMPOSITIONS AND METHODS FOR TREATMENT OF HEPATITIS B VIRUS INFECTION” (ANHUI RONGHANG BIOTECH DEVELOPMENT CO., LTD., priority 2019, published 2022).

Amino acid sequences for entries named in this document (tags omitted).
UniProt P08183, whole entry: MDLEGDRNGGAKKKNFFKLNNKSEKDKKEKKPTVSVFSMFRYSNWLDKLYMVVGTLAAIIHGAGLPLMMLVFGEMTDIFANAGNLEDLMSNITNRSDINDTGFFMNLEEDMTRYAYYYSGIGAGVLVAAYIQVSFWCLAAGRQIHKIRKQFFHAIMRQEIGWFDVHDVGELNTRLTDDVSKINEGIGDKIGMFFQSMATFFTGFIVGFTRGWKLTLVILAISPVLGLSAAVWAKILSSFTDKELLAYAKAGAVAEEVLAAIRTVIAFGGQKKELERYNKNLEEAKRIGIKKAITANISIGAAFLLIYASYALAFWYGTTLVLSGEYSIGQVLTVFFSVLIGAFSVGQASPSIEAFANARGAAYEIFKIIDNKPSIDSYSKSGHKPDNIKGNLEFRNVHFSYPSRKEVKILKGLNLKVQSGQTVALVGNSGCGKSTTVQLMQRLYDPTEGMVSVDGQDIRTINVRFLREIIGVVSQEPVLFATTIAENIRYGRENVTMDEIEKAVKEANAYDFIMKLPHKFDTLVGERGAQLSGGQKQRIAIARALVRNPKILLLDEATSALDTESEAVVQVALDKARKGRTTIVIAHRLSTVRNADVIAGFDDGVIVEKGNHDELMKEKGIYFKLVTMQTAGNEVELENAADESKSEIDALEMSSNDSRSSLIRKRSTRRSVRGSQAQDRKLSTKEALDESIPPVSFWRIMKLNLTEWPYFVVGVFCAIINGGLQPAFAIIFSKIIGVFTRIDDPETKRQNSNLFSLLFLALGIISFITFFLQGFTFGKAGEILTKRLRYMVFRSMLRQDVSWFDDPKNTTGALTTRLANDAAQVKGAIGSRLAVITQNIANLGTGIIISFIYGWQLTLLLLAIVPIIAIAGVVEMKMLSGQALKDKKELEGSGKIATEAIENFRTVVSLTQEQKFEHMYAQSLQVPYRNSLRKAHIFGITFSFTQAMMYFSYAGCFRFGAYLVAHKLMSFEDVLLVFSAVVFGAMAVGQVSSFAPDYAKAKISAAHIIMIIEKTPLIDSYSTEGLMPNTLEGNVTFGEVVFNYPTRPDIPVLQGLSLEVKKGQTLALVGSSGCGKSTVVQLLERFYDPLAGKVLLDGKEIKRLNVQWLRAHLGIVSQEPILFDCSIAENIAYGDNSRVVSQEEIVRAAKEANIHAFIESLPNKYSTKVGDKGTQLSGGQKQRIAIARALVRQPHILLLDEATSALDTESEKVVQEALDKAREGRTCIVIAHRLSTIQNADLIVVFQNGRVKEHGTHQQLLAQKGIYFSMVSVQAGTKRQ

Target: P-gp (Homo sapiens, UniProt P08183)
Conditions: cited from earlier work

In the case of `Cl.Cl.Cl.O[C@@H](COc1cccc2ncccc12)CN1CCN([C@@H]2c3ccccc3[C@@H]3[C@H](c4ccccc42)C3(F)F)CC1` [LY335979, (2R)-1-{4-[(1aR,6r,10bS)-1,1-Difluoro-1,1a,6,10b-tetrahydrodibenzo[a,e]cy-clopropa[c]cyclohepten-6-yl]piperazin-1-yl}-3-(quinolin-5-yloxy)propan-2-o-1,trihydrochloride], the “potency relative to the first and second-generation P-gp inhibitors” value is listed as “about 10 fold”.
